Measured values reported in patent US6943025B2, “Method for identifying genes involved in cell proliferation” (Children's Medical Center Corporation, priority 2001, dated 2005).

Key:
zebrafish = assay: Kaplan-Meier survival curve of carcinogen-treated zebrafish; conditions: MNNG 2 ppm, n=40 for each group, FIG. 6(E)
Wild-type fish = assay: Carcinogenesis assay, wild-type fish exposed to carcinogens
[1] = wild-type fish, 24-hour exposure, MNNG 0.5, 1.0 and 2.0 ppm, DMBA 2.5, 5.0 and 10.0 ppm

## N-methyl-N′-nitro-Nitrosoguanidine
zebrafish
  life span versus control: decreased lifespan
Wild-type fish; MNNG 5 ppm, sacrificed after three months, FIGS. 17 and 18
  tumor histology after exposure: a tumor in liver (17(B)-(C)) and testis
Wild-type fish; carcinogen-treated fish, FIG. 6
  tumor seen in tissue sections (histology): germ-cell tumor
Wild-type fish; wild-type fish
  tumor types produced: more mesenchymal and testicular tumors
Wild-type fish; [1]
  fish that developed tumors: 7.8%
  fish that developed tumors / fish treated: 10/128
